# “And” between values parts separate entries of the source, which are not always exact repeats. Equal entries are not always repeated.
# Tests used:
# [1] = Blood-to-plasma concentration ratio (rat whole blood); format: in vitro ADME; settings: RPG 5 μM alone, 37 °C, read-out: RB (blood-to-plasma concentration ratio)
# Protocol: (§1) The blood-to-plasma concentration ratio (RB) of RPG was determined as described previously. Briefly, 1 mL of fresh blood was spiked with either RPG alone or in combination with QCT, yielding a final concentration of 5 μM for both compounds, and then incubated at 37 °C for 60 min. A plasma sample was obtained by centrifugation of the blood sample at 2000× g for 5 min. The concentrations of RPG in 50 μL of the plasma samples were determined using a validated high-performance liquid chromatography (HPLC) method.
# [2] = In vitro microsomal metabolism of RPG (disappearance) in HLM; format: in vitro ADME, human; settings: HLM 0.3 mg/mL, 1–500 μM RPG, Michaelis–Menten fit
# Protocol: The concentration-dependent disappearance of RPG in the RLM and HLM was evaluated to investigate the kinetics of the hepatic CYP-mediated metabolism of RPG. A microsomal reaction mixture consisting of microsomes (0.3 mg/mL), 1 mM NADPH, 50 mM phosphate buffer, and 1–500 μM RPG in distilled water (DW) was prepared, at a total volume of 200 μL. At 0, 30, and 60 min after starting the metabolic reaction, a 50 μL aliquot of the incubation mixture was sampled and transferred to a clean 1.5-mL microcentrifuge tube containing 150 μL of ice-cold acetonitrile to terminate the metabolic reaction. Following centrifugation at 15,000× g for 10 min, 150 μL of the resultant supernatant was obtained and the concentration of RPG in the sample was determined using the HPLC method.
# A single-site Michaelis–Menten Equation was simultaneously fitted to the substrate (RPG) concentration ([S]; μM) as follows versus initial metabolic rate (V; pmol/min/mg protein):(2) V= Vmax × [S]/Km+[S] where Vmax and Km are the maximal metabolic rate and Michaelis–Menten constant, respectively. The intrinsic metabolic clearance (CLint) was calculated as Vmax/Km. […] The type of inhibition of QCT on the hepatic metabolism of RPG was determined graphically using a Dixon plot. […]
# [3] = In vivo intravenous pharmacokinetic study of RPG without or with QCT in rats; set-up: species or system Sprague-Dawley rats; settings: CLH divided by QH 50–80 mL/min/kg
# Protocol: (§2) Rats were anesthetized via intramuscular injection of 10 mg/kg zoletil. The femoral vein and artery of the rats were cannulated using a polyethylene tube (BD Medical, Franklin Lakes, NJ, USA). After recovery from anesthesia, a single intravenous or oral dose (0.4 mg/kg) of RPG with or without a single simultaneous intravenous dose (25 mg/kg) or oral dose (100 mg/kg) of QCT was administered to the rats. The vehicle solutions for the intravenous and oral doses were composed of PEG 400 and aqueous 0.3% CMC solution (50:50 v/v). […] After centrifugation of the blood sample at 2000× g at 4 °C for 5 min, 120 μL of the resulting supernatant (plasma) was obtained and the concentration of RPG in the sample was determined using the HPLC method.
# (§3) Non-compartmental analysis (WinNonlin, version 3.1, NCA200 and 201; Certara, Inc., Princeton, NJ, USA) was conducted to estimate the following pharmacokinetic parameters: total area under the plasma concentration–time curve from time zero to time infinity (AUC); total body clearance (CL, calculated as dose/AUC); terminal half-life (t1/2); and apparent volume of distribution at steady state (Vss). For comparison, the extent of absolute oral bioavailability (F; expressed as percent of dose administered) was calculated by dividing the dose-normalized AUC after oral administration by the dose-normalized AUC after intravenous injection. […]
# [4] = Blood-to-plasma concentration ratio (human whole blood); format: in vitro ADME; settings: RPG 5 μM alone, 37 °C, read-out: RB (blood-to-plasma concentration ratio)
# Protocol: as §1
# [5] = Prediction of clinical herb-drug interaction by the basic (simple static) model; set-up: species or system human; settings: clinical prediction from in vitro data
# [6] = In vivo oral pharmacokinetic study of RPG without or with QCT in rats; settings: Sprague-Dawley, rat, plasma, 0.4 mg/kg, RPG 0.4 mg/kg oral, RPG alone
# Protocol: as §2, §3
smiles,measurement,setting,value
"CCOc1cc(CC(=O)N[C@@H](CC(C)C)c2ccccc2N2CCCCC2)ccc1C(=O)O [RPG, Repaglinide]","blood plasma ratio at 60 min, 5 μM",[1],0.869 ± 0.043
same,Km,[2],43 µM and 42.8 µM
same,Hepatic extraction ratio (EH),[3],0.114–0.182
same,"blood plasma ratio at 60 min, 5 μM",[4],0.847 ± 0.021
same,"R, predicted ratio of the AUC of RPG in the presence and absence of QCT (1 + Imax,u / Ki)",[5],1.03–1.54
same,AUC,[6],428 ng·h/mL
